Ab-14 heavy chain CDR variants: yeast mating affinities

Target: peptide PDVDLGDISGINAS, taken from heptad repeat 2 (HR2) of SARS-CoV-2 spike.

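Phage display of a naive human antibody library on the peptide gave the parent. AAYL49 was designed without a model: most single CDR substitutions and a random sample of double and triple ones. The assay is AlphaSeq: two haploid yeast populations carry antibody and antigen on their surface. Pairs that bind mate more often; barcode pairs of the diploids are counted by sequencing. Each replicate has its own calibration line, from reference interactions of the BCL2 family. There are three technical replicates.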

The variants keep the light chain, the linker and the frameworks of Ab-14 (scFv order VH, a (GGGGS)3 linker, VL).
VH: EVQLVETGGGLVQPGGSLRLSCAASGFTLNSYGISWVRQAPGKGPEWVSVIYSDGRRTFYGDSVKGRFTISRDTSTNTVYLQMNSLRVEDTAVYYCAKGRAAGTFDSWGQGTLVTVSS
VL: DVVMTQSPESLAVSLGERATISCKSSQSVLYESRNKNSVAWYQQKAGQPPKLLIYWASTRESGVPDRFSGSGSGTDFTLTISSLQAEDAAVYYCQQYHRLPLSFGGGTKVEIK

Positions count from residue 1 of the parent VH; F59D puts D in place of F.
Values are apparent Kd, the geometric mean of the replicates that gave a signal; lower means stronger binding.
A pair that was not seen in any replicate is written "nd"; this usually means weak binding, but a binder can also be missed.
Background: pairings of library AAYL49 with three empty control strains gave a value in 15% of cases (median 11 µM, 5th percentile 680 nM). Values in that range, when seen in few replicates, are hard to tell from nonspecific mating. The control count says in how many pairings with the empty strains this scFv gave a signal.
Parent in this assay: reference entry 4.4 nM, copy in this library 13 µM (one replicate of three).

changes | Kd | seen in | control signals
F59D/Y60G/A102R | nd | 0 of 3 | 2 of 9
L29W/G61N/F105V | 7.5 µM | 1 of 3 | 0 of 9
G55T/R100H/S107M | 5.7 µM | 1 of 3 | 1 of 9
S31E/V64F/G103S | 34 µM | 3 of 3 | 5 of 9
S35D/A101R/A102L | 8.0 µM | 2 of 3 | 3 of 9
D54W/R100W/A102I | nd | 0 of 3 | 2 of 9
L29D/S35P/G99Q | 900 nM | 3 of 3 | 6 of 9
I51F/S63G/A101Q | nd | 0 of 3 | 0 of 9
N30V/R56G | 1.1 µM | 2 of 3 | 2 of 9
G26F/L29Y/S63H | nd | 0 of 3 | 0 of 9
T28N/S35T/G61W | nd | 0 of 3 | 1 of 9
I34R/G55W/D106P | 84 µM | 3 of 3 | 9 of 9
A101S/T104V | 6.2 µM | 1 of 3 | 2 of 9
Y32Q/S53W/F105K | nd | 0 of 3 | 2 of 9
S63P/R100T/A102D | 16 µM | 1 of 3 | 2 of 9
S35L/D54W/Y60C | nd | 0 of 3 | 0 of 9
R57F/F59Y/V64W | 22 µM | 2 of 3 | 4 of 9
S53R/A101H/D106E | nd | 0 of 3 | 0 of 9
G33K/S53C/G99L | 4.8 µM | 2 of 3 | 2 of 9
D54P/G61T/A101M | nd | 0 of 3 | 3 of 9
F27H/I34Q/S53N | nd | 0 of 3 | 0 of 9
S35P/I51V/R57D | nd | 0 of 3 | 3 of 9
G33P/F59D/R100C | nd | 0 of 3 | 3 of 9
G26P/Y32D/Y60L | nd | 0 of 3 | 0 of 9
Y52H/A102M/G103W | nd | 0 of 3 | 1 of 9
G61F/K65S/G99L | 15 µM | 1 of 3 | 4 of 9
G26L/G61Y | 28 nM | 3 of 3 | 0 of 9
G55V/F59A/S63C | 22 µM | 1 of 3 | 1 of 9
L29P/D54C/F105M | nd | 0 of 3 | 0 of 9
G55Y/F59S/G61K | nd | 0 of 3 | 1 of 9
T28L/D54R/G55Y | 210 µM | 3 of 3 | 6 of 9
R56M/F59Y/V64L | 580 nM | 3 of 3 | 2 of 9
L29S/I34E/F59N | nd | 0 of 3 | 2 of 9
G55R/T58H/A102H | nd | 0 of 3 | 0 of 9
T28Y/D54M/G99I | 4.9 µM | 1 of 3 | 0 of 9
Y52A/G55V/R56W | nd | 0 of 3 | 3 of 9
G26V/T58M/V64Y | nd | 0 of 3 | 0 of 9
G33T/S35I/R57D | 56 µM | 2 of 3 | 4 of 9
F27I/S53A/S107M | 1.1 nM | 3 of 3 | 0 of 9
G55P/Y60F/G103R | nd | 0 of 3 | 0 of 9
I34M/G55K/T104V | 220 µM | 1 of 3 | 5 of 9
S53P/T58Y/A101I | 22 nM | 3 of 3 | 4 of 9
Y52F/D54H/A102E | nd | 0 of 3 | 1 of 9
I34H/D62V | 2.1 µM | 1 of 3 | 0 of 9
R57V/D62A/K65E | 32 µM | 3 of 3 | 7 of 9
F27E/Y52E/A102C | nd | 0 of 3 | 3 of 9
I34N/S35F/I51L | nd | 0 of 3 | 0 of 9
G33V/I34L/G55A | nd | 0 of 3 | 0 of 9
T28Q/Y32C/S35H | 1.7 µM | 3 of 3 | 3 of 9
Y52M/K65A/F105A | 39 µM | 2 of 3 | 3 of 9
G61V/D62S/F105G | nd | 0 of 3 | 1 of 9
S31F/V64P/A102V | 1.1 µM | 1 of 3 | 1 of 9
Y32K/S35C | 1.6 µM | 2 of 3 | 2 of 9
I51Q/R56K/A102F | 1.5 µM | 2 of 3 | 0 of 9
G33F/G55R/G103S | 10 µM | 1 of 3 | 3 of 9
F27A/R100L/T104I | 11 µM | 2 of 3 | 0 of 9
G33N/A102H/T104W | nd | 0 of 3 | 2 of 9
T28N/K65E/G103V | 16 nM | 3 of 3 | 4 of 9
Y32M/S35G/R57D | 140 µM | 1 of 3 | 4 of 9
T58W/Y60D/V64D | 19 µM | 2 of 3 | 0 of 9
Y32G/I51E/S53M | 55 µM | 2 of 3 | 5 of 9
S31E/F105Y | 4.1 nM | 3 of 3 | 2 of 9
D54M/A101H/G103V | nd | 0 of 3 | 0 of 9
S53L/A101N/G103W | nd | 0 of 3 | 2 of 9
R56V/G61V/A102E | nd | 0 of 3 | 0 of 9
F27T/G61W/R100M | 12 µM | 1 of 3 | 1 of 9
L29V/G33K/S35N | 10 µM | 1 of 3 | 1 of 9
F59W/Y60E/K65A | 13 µM | 2 of 3 | 6 of 9
Y32L/R100P/F105Q | nd | 0 of 3 | 1 of 9

A selection of 11 entries from above:

changes | Kd | seen in | control signals
G55T/R100H/S107M | 5.7 µM | 1 of 3 | 1 of 9
T28N/K65E/G103V | 16 nM | 3 of 3 | 4 of 9
L29P/D54C/F105M | nd | 0 of 3 | 0 of 9
G55Y/F59S/G61K | nd | 0 of 3 | 1 of 9
G33N/A102H/T104W | nd | 0 of 3 | 2 of 9
D54W/R100W/A102I | nd | 0 of 3 | 2 of 9
T28Y/D54M/G99I | 4.9 µM | 1 of 3 | 0 of 9
S31E/F105Y | 4.1 nM | 3 of 3 | 2 of 9
L29W/G61N/F105V | 7.5 µM | 1 of 3 | 0 of 9
Y52F/D54H/A102E | nd | 0 of 3 | 1 of 9
G26L/G61Y | 28 nM | 3 of 3 | 0 of 9

Data: MIT Lincoln Laboratory AlphaSeq set, Engelhart et al. 2022, doi:10.1038/s41597-022-01779-4, as distributed in FLAb.